The nature of series [1]: Detergency solubility of carboxylic acid coatings in KOH based system (Example 1). The format is physicochemical. To be noted: acidic coating, materials dissolved in DMAC.
Series [2] in a line: Water solubility of carboxylic acid coatings (Example 1). To be noted: acidic coating; materials dissolved in n,n-dimethylacetamide (DMAC).

In the case of `O=C(O)C1CCC(C(=O)O)CC1` (centres unmarked) [1,4-CHDA HP], the “Detergency (KOH based system)” value in series [1] is “Yes”. Also, the “Water solubility (observed)” value in series [2] was “Limited/no”.

The values above are taken from patent publication US9790407B2, “Aqueous detergent soluble coating and adhesive and methods of temporary bonding for manufacturing” (priority 2013, dated 2017).
